Assay results from patent US7235366B1 (priority 1993, dated 2007).

Protein sequences, listed by entry. Tags and fused reporters are not part of them. Lines headed by an entry give the natural chain unless they say otherwise; changes in a name come on top.
UniProt P33534: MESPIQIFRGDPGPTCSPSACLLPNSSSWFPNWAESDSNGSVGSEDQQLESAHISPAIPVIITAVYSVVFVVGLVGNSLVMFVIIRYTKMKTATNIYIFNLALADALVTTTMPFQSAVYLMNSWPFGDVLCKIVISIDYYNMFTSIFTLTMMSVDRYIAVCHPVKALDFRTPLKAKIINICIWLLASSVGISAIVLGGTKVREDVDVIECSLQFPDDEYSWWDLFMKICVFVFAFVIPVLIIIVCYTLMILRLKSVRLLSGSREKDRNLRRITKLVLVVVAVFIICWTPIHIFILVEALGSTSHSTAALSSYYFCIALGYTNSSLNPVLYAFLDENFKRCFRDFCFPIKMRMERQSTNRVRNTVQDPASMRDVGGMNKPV
UniProt P32300, whole entry H278N: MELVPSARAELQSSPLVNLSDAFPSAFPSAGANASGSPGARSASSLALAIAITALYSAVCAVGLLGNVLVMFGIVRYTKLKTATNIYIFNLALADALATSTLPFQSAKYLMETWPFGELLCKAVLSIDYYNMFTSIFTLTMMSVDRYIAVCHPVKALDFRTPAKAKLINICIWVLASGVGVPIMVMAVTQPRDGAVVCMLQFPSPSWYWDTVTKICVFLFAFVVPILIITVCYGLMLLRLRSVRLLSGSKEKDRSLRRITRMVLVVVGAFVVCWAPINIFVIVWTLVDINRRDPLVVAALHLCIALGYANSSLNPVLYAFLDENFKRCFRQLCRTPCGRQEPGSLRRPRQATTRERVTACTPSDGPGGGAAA
UniProt P32300, whole entry: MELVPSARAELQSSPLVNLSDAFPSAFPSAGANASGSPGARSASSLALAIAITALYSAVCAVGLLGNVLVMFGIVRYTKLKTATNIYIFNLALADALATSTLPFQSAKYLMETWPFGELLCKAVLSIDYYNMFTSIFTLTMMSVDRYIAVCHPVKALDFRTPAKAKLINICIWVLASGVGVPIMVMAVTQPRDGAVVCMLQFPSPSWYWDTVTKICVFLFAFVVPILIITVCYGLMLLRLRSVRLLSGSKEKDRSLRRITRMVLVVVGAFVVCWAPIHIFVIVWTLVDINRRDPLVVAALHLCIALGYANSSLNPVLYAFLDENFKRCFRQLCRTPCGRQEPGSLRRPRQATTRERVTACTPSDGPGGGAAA
UniProt P32300, whole entry D128N: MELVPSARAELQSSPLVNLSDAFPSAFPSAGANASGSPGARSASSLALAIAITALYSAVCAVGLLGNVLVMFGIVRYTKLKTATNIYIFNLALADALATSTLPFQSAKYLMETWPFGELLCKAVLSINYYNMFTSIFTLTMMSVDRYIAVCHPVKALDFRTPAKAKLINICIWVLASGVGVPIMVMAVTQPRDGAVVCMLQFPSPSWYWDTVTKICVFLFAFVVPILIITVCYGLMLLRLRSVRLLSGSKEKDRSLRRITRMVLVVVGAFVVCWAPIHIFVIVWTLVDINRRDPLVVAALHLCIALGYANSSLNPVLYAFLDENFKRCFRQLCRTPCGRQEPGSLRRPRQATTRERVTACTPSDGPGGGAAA
UniProt P33535, whole entry: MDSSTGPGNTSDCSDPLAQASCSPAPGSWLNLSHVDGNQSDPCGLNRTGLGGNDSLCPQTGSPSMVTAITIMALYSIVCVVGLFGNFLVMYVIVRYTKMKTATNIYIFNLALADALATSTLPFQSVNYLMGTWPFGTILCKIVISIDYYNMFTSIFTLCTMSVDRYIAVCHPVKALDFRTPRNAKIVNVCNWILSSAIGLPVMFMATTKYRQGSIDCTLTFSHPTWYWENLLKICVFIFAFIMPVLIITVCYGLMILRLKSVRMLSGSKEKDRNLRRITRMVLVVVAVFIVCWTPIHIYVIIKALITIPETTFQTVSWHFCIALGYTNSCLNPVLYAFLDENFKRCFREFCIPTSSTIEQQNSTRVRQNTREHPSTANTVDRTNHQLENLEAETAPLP
UniProt P35372, whole entry: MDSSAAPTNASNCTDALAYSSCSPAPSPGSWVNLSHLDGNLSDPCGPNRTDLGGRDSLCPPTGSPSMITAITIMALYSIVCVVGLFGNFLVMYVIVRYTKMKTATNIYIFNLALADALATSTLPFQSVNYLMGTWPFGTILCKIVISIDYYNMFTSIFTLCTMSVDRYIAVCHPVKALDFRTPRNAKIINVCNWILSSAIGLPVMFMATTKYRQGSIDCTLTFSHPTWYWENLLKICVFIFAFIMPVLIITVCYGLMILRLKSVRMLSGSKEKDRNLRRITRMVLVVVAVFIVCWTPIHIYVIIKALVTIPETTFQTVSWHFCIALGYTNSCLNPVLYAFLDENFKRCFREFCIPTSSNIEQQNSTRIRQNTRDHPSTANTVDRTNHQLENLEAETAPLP

Key:
[1] = target: cloned mouse κ receptor (Mus musculus, UniProt P33534); conditions: read-out: Binding potencies (Ki-nM) κ RECEPTOR [^3H] U-69, 593
[2] = target: T1, H278N mutant mouse delta opioid receptor (Mus musculus, UniProt P32300, H278N); type: binding; conditions: read-out: Potencies of Agonists to Bind, H278N mutant (Ki values in nM)
T1 construct: expressed in transfected cells; host or cells: COS-7 (transient, pCMV6c)

[3] = target: cloned rat μ receptor (Rattus norvegicus, UniProt P33535); conditions: read-out: Binding potencies (Ki-nM) μ RECEPTOR [^3H] DAMGO
[4] = target: cloned mouse δ receptor (Mus musculus, UniProt P32300); conditions: read-out: Binding potencies (Ki-nM) δ RECEPTOR [^3H] naltrindole
[5] = target: T2, D128N mutant mouse delta opioid receptor (Mus musculus, UniProt P32300, D128N); type: binding; conditions: read-out: Potencies of Agonists to Bind, D128N mutant (Ki values in nM)
T2 construct: expressed in transfected cells; host or cells: COS-7 (transient, pCMV6c)

[6] = target: T3, cloned rat μ opioid receptor (Rattus norvegicus, UniProt P33535); conditions: read-out: Binding potencies (Ki-nM) [^3H] DAMGO rat
T3 construct: expressed in transfected cells; host or cells: COS-7 (transient)

[7] = target: T4, wild-type mouse delta opioid receptor (Mus musculus, UniProt P32300); type: binding; conditions: read-out: Potencies of Agonists to Bind, Wild-type (Ki values in nM)
T4 construct: expressed in transfected cells; host or cells: COS-7 (transient, pCMV6c)

[8] = target: T5, cloned human μ opioid receptor (Homo sapiens, UniProt P35372); conditions: read-out: Binding potencies (Ki-nM) for the cloned human μ opioid receptor [^3H] DAMGO
T5 construct: This fragment includes the entire coding region of the human μ opioid receptor; expressed in transfected cells; host or cells: COS-7 (transient, pcDNA3)

Substance: D-Ala^2-deltorphin II
- Ki [1]: > 1000 nM
- Ki [2]: 4 nM
- Ki [3]: > 1000 nM
- Ki [4]: 3.3 nM
- Ki [5]: 1940 nM

Substance: Dynorphin A (1–17)
- Ki [4]: > 1000 nM

Substance: Leu-enkephalin
- Ki [1]: > 1000 nM

Substance: Met-enkephalin
- Ki [1]: > 1000 nM
- Ki [4]: 4 nM

Substance: β-Endorphin (human)
- Ki [6]: 1.7 nM
- Ki [2]: 8.1 nM
- Ki [7]: 26 nM
- Ki [3]: 1 nM
- Ki [4]: 1 nM
- Ki [8]: 0.94 nM
- Ki [5]: 15800 nM
